In general, IC50 refers to the concentration needed to halve the response being measured.

Protein sequences, listed by entry. Tags and fused reporters are not part of them. Residues count along the entry.
UniProt P23443, 1-421 T412E limits assumed: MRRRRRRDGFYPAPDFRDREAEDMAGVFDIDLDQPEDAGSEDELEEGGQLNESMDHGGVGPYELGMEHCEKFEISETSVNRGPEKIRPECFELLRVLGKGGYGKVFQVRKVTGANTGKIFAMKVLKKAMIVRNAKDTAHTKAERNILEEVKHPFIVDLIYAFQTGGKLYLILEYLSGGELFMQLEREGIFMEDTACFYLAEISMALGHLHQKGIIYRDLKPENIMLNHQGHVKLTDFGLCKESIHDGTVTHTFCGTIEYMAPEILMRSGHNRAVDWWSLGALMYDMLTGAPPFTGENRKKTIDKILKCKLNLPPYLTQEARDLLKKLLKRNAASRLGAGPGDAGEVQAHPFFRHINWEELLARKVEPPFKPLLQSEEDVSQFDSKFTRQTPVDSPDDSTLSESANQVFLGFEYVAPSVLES
UniProt Q96GD4, whole entry: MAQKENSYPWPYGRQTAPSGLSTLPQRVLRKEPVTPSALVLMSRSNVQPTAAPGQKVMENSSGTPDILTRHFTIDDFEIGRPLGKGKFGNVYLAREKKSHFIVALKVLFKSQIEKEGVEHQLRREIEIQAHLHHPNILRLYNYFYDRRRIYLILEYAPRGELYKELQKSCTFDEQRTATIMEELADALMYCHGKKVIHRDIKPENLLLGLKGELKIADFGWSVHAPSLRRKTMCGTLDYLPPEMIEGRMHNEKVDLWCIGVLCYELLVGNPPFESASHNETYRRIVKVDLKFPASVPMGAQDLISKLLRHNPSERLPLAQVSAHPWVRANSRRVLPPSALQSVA
UniProt Q9NQS7, 803-918 partner limits assumed: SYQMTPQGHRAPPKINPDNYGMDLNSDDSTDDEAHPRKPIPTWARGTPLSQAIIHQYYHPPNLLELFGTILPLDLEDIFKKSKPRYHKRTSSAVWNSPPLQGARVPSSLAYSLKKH

This passage reports IC50 results from patent publication US8946247B2, “Quinazoline carboxamide azetidines” (Merck Patent GmbH, priority 2010, dated 2015).

One experiment concerns the target P70S6K (T412E mutant) (Homo sapiens, UniProt P23443, T412E). Put plainly: p70S6K Enzyme Assay. To be noted: read-out: IC50 p70S6K; 24 μM ATP, 90 min at 25° C., Caliper mobility shift. As for the experimental part: p70S6K inhibitor compounds were diluted and plated in 96 well plates. A reaction mixture including the following components were then added to the compound plate to initiate the enzyme reaction; P70S6K (3 nM, T412E mutant, Millipore) was mixed with 24 μM ATP in an assay buffer containing 100 mM Hepes (pH 7.5), 5 mM MgCl2, 1 mM DTT, 0.015% Brij and 1 μM of the substrate peptide FITC-AHA-AKRRRLSSLRA-OH (derived from the S6 ribosomal protein sequence, FITC=fluorescein isothiocyanate, AHA=6-aminohexanoic acid). The reaction was incubated for 90 min at 25° C., before the addition of 10 mM EDTA to stop the reaction. The proportion of substrate and product (phosphorylated) peptide was analysed on a Caliper Life Sciences Lab Chip 3000, using a pressure of −1.4 psi, and upstream and downstream voltages of −3000 and −700 respectively. Product peaks were resolved before substrate peaks on the resulting chromatograms.
To assess the inhibitory potential of the compounds, IC50-values were determined, as shown in Chemical Synthesis section above.

A further experiment has as its target Aurora B (Homo sapiens, UniProt Q96GD4). As to the kind of experiment: Aurora B Kinase Assay. To be noted: read-out: Aurora B IC50; GST-Aurora B (1-344), 10 uM ATP, 90 min at 25 C. As for the experimental part: To measure inhibitor activity of Aurora B inhibitors in the Caliper Life Sciences LC3000, a TTP Mosquito liquid handling instrument was used to place 0.25 ul of the appropriate concentration of inhibitor in 100% DMSO (for a dose response curve calculation) into each well of a 384-well plate. To this reaction components was added to a final volume of 25 ul: • 0.1 ng/ul GST-Aurora B (1-344 amino acids), (Carna Biosciences 05-102. N-terminal GST fusion with His tagged INCEP, accession number Q96GD4). • 10 uM ATP (Fluka, 02055) • 1 mM DTT (Sigma, D0632) • 1 mM MgCl2 (Sigma, M1028) • 1 uM substrate peptide (sequence FITC-LRRASLG-(CONH2), synthesized by Tufts Peptide Synthesis service. • 100 mM HEPES pH 7.5 (Calbiochem, 391338) • 0.015% Brij-35 (Sigma, B4184)
The reaction was incubated for 90 min at 25 C, and then stopped by the addition of 70 ul of Stop buffer (100 mM HEPES pH 7.5, 0.015% Brij-35, 10 mM EDTA (Sigma, E7889)).
The plate was read on a Caliper LC 3000 in an Off-Chip mobility shift assay format, using the following parameters for a 12-sipper chip: screening pressure −1.8 psi, upstream voltage −2700, downstream voltage −1000. […] The percent conversion was plotted against concentration of inhibitor to produce a sigmoidal dose response curve, from which an IC50 was calculated using XLFit for Microsoft Excel.

As to `NC(=O)c1cccc2c(N[C@H](CN3CCC3)c3ccc(NC(=O)c4ccccc4)cc3)ncnc12`, the IC50 on P70S6K (T412E mutant) is 440 nM; at Aurora B it was above 10 nM.
